Legend:
Nociceptin receptor = Nociceptin receptor (Homo sapiens, UniProt P41146); assay: Displacement of [3H]NOP from human NOP receptor expressed in HEK293 cells
Mu-type opioid receptor [1] = target: T1, Mu-type opioid receptor (Homo sapiens, UniProt P35372); assay: Displacement of [3H]naloxone from human mu opioid receptor expressed in BHK cells
Mu-type opioid receptor [2] = target: T1, Mu-type opioid receptor; assay: Inhibitory activity at human mu opioid receptor in BHK cells by GTPgammaS binding assay

| SMILES | IC50 (Nociceptin receptor) [µM] | IC50 (Mu-type opioid receptor [1]) [µM] | IC50 (Mu-type opioid receptor [2]) [µM] |
| --- | --- | --- | --- |
| O=C1NCN(c2ccccc2)C12CCN([C@@H]1CCOC[C@@]1(O)c1ccccc1)CC2 (racemic) | > 10 | 2.5 | – |
| O=C1NCN(c2ccccc2)C12CCN([C@@H]1CCCC[C@@]1(O)c1ccccc1)CC2 (racemic) | 15 | – | 2.7 |
| O=C1NCN(c2ccccc2)C12CCN([C@@H]1CCCC[C@@]1(O)c1ccc(Cl)c(Cl)c1)CC2 (racemic) | 10 | 3.7 | – |
| Cc1ccc([C@]2(O)CCCC[C@H]2N2CCC3(CC2)C(=O)NCN3c2ccccc2)cc1 (racemic) | > 10 | 3 | – |
| O=C1NCN(c2ccccc2)C12CCN([C@H]1CCCC[C@@]1(O)c1ccccc1)CC2 (racemic) | 0.13 | – | 1.6 |
| COc1ccc(N2CNC(=O)C23CCN([C@@H]2CCCC[C@@]2(O)c2ccc(Cl)cc2)CC3)cc1 (racemic) | > 10 | 4.4 | – |
| O=C1NCN(c2ccccc2)C12CCN([C@@H]1CCCC[C@@]1(O)c1cccnc1)CC2 (racemic) | 13.4 | 1.8 | – |
| O=C1NCN(c2ccccc2)C12CCN([C@@H]1CCCC[C@@]1(O)c1cccc(Cl)c1)CC2 (racemic) | 3.85 | 1.09 | – |
| O=C1NCN(c2ccc(Cl)cc2)C12CCN([C@@H]1CCCC[C@@]1(O)c1ccc(F)cc1)CC2 (racemic) | > 10 | 2.2 | – |
| O=C1NCN(c2ccccc2)C12CCN([C@@H]1COCC[C@@]1(O)c1ccccc1)CC2 (racemic) | > 10 | 5.3 | – |
| O=C1NCN(c2ccccc2)C12CCN([C@@H]1CCCC[C@@]1(O)c1ccccn1)CC2 (racemic) | 15 | 1.42 | – |
| COc1ccc([C@]2(O)CCCC[C@H]2N2CCC3(CC2)C(=O)NCN3c2ccccc2)cc1 (racemic) | 7 | 2.5 | – |
| O=C1NCN(c2ccc(F)cc2)C12CCN([C@@H]1CCCC[C@@]1(O)c1ccc(Cl)cc1)CC2 (racemic) | 10.4 | 2.4 | – |
| O=C1NCN(c2ccccc2)C12CCN([C@@H]1CCCC[C@@]1(O)c1ccncc1)CC2 (racemic) | > 10 | 1 | – |
| O=C1NCN(c2ccccc2)C12CCN([C@@H]1CCCC[C@@]1(O)c1ccc(Cl)cc1)CC2 (racemic) | 1 | 3.6 | – |
| COc1cccc([C@]2(O)CCCC[C@H]2N2CCC3(CC2)C(=O)NCN3c2ccccc2)c1 (racemic) | 5.8 | 2.17 | – |
| Cc1ccccc1[C@]1(O)CCCC[C@H]1N1CCC2(CC1)C(=O)NCN2c1ccccc1 (racemic) | 1 | 0.26 | – |
| O=C1NCN(c2ccc(F)cc2)C12CCN([C@@H]1CCCC[C@@]1(O)c1ccc(F)cc1)CC2 (racemic) | 10 | 4 | – |
| O=C1NCN(c2ccccc2)C12CCN([C@@H]1CCCC[C@@]1(O)c1ccc(F)cc1)CC2 (relative stereo) | 1 | 4 | – |

— ChEMBL document CHEMBL1147765, “Discovery of N-(2-hydroxy-2-aryl-cyclohexyl) substituted spiropiperidines as GlyT1 antagonists with improved pharmacological profile” (Bioorg Med Chem Lett, 2006)
